Laboratory results reported in ChEMBL document CHEMBL4715766, “Systemic structure-activity relationship study of phenyl polyyne diols as potential chemopreventive agents” (Bioorg Med Chem Lett, 2016).

By UniProt entry, the sequences of proteins in these tests, tags left out.
UniProt Q64669, whole entry: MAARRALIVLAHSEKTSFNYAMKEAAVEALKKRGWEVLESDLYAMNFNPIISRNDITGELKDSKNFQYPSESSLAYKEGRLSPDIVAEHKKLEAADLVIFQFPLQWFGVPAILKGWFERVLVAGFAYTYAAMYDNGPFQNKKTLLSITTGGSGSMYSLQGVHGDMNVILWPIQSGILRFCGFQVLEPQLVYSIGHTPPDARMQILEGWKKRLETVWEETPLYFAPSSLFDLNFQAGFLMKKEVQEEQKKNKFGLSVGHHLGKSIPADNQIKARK

What follows are molecules tested against NAD(P)H dehydrogenase [quinone] 1 (Mus musculus) (UniProt Q64669). Details: Hepa1c1c7, filed as activator.

Q: Which CD does the source give for CCCCCC(O)C#CC#CC(O)c1ccccc1 (configuration not stated) here?
A: The CD was 6.5 µM.

Q: With CCCCCC(O)C#CC#CC(O)c1ccc(Br)cc1 (configuration not stated) as the molecule, how does the CD read?
A: The CD was 13.6 µM.

Q: Which CD does the source give for CCCCCC(O)C#CC#CC(O)c1ccc(OCc2ccccc2)c(OC)c1 (configuration not stated) here?
A: Its CD is 12.7 µM.

Q: Which CD does the source give for CCCCCC(O)C#CC#CC(O)c1cc(C(F)(F)F)cc(C(F)(F)F)c1 (configuration not stated) here?
A: The CD was 50.8 µM.

Q: For CC(C)CC(O)C#CC#CC(O)c1cccc(Cl)c1 (configuration not stated), which CD is on record?
A: Its CD is 5.1 µM.

Q: With CCCCCC(O)C#CC#CC(O)c1ccc(F)cc1Cl (configuration not stated) as the molecule, how does the CD read?
A: The CD was 24.3 µM.

Q: CCCCCC(O)C#CC#CC(O)c1ccc2c(c1)OCCO2 (configuration not stated) was tested. Which CD did it give?
A: The CD was 3 µM.

Q: How did the CD turn out when CCCCCC(O)C#CC#CC(O)c1ccc(Cl)cc1 (configuration not stated) was run?
A: Its CD is 3.3 µM.

Q: With CCCCCC(O)C#CC#CC(O)c1cc(Cl)cc(Cl)c1 (configuration not stated) as the molecule, how does the CD read?
A: Its CD is 19.7 µM.

Q: How did the CD turn out when CCCCCC(O)C#CC#CC(O)c1cccc(Br)c1 (configuration not stated) was run?
A: Its CD is 12.1 µM.

Q: For CCCCCC(O)C#CC#CC(O)c1ccc(OC)cc1C (configuration not stated), which CD is on record?
A: The CD was 15 µM.

Q: With CCCC(O)C#CC#CC(O)c1ccc(F)cc1 (configuration not stated) as the molecule, how does the CD read?
A: Its CD is 0.7 µM.

Q: Which CD does the source give for CCCCCC(O)C#CC#CC(O)c1ccc(Cl)cc1Cl (configuration not stated) here?
A: The CD was 22.3 µM.

Q: Which CD does the source give for CCCCCCCCCC(O)C#CC#CC(O)c1cccc(Cl)c1 (configuration not stated) here?
A: The CD was 15.4 µM.

Q: How did the CD turn out when CCCCCC(O)C#CC#CC(O)c1ccc(F)cc1 (configuration not stated) was run?
A: Its CD is 3.2 µM.

Q: With CCCCCC(O)C#CC#CC(O)c1cc(OC)c(OC)cc1F (configuration not stated) as the molecule, how does the CD read?
A: Its CD is 3.3 µM.

Q: CCCCCC(O)C#CC#CC(O)c1ccc(Cl)c(F)c1 (configuration not stated) was tested. Which CD did it give?
A: Its CD is 4.9 µM.

Q: Which CD does the source give for OC(C#CC#CC(O)C1CCCCC1)c1ccc(F)cc1 (configuration not stated) here?
A: Its CD is 5.7 µM.

Q: For CCCCCC(O)C#CC#CC(O)c1cc(Cl)ccc1Cl (configuration not stated), which CD is on record?
A: Its CD is 6.2 µM.

Q: CCCCCC(O)C#CC#CC(O)c1cc(Br)ccc1OC (configuration not stated) was tested. Which CD did it give?
A: The CD was 17.3 µM.

Q: CCCCCC(O)C#CC#CC(O)c1cc(OC)c(OC)cc1OC (configuration not stated) was tested. Which CD did it give?
A: The CD was 29.8 µM.

Q: Which CD does the source give for CCCCCC(O)C#CC#CC(O)c1ccc2c(c1)OCO2 (configuration not stated) here?
A: The CD was 1.8 µM.

Q: For CCCC(O)C#CC#CC(O)c1cccc(Cl)c1 (configuration not stated), which CD is on record?
A: Its CD is 3 µM.

Q: Which CD does the source give for CCCCCC(O)C#CC#CC(O)c1ccc(F)c(Cl)c1 (configuration not stated) here?
A: The CD was 4.4 µM.

Q: Which CD does the source give for CCCCCC(O)C#CC#CC(O)c1cccc2ccccc12 (configuration not stated) here?
A: Its CD is 11.4 µM.

Q: How did the CD turn out when CCCCCC(O)C#CC#CC(O)c1ccc(F)c(F)c1 (configuration not stated) was run?
A: The CD was 7 µM.

Q: CCCCCCCCCC(O)C#CC#CC(O)c1ccc(F)cc1 (configuration not stated) was tested. Which CD did it give?
A: Its CD is 7 µM.

Q: For OC(C#CC#CC(O)C1CCCCC1)c1cccc(Cl)c1 (configuration not stated), which CD is on record?
A: The CD was 12 µM.

Q: For CCCCCC(O)C#CC#CC(O)c1cccc(F)c1 (configuration not stated), which CD is on record?
A: The CD was 11.9 µM.

Q: For CCCCCC(O)C#CC#CC(O)c1ccc(OC)c(OC)c1OC (configuration not stated), which CD is on record?
A: The CD was 17.6 µM.

Q: For CCCCCC(O)C#CC#CC(O)c1ccc(Cl)c(Cl)c1 (configuration not stated), which CD is on record?
A: The CD was 6.7 µM.

Q: With CCCCCC(O)C#CC#CC(O)c1ccc2ccccc2c1 (configuration not stated) as the molecule, how does the CD read?
A: The CD was 25.8 µM.

Q: For CCCCCC(O)C#CC#CC(O)c1cccc(Cl)c1 (configuration not stated), which CD is on record?
A: Its CD is 1.3 µM.

Q: With CCCCCC(O)C#CC#CC(O)c1ccccc1Cl (configuration not stated) as the molecule, how does the CD read?
A: Its CD is 22.2 µM.

Q: With CCCCCC(O)C#CC#CC(O)c1cccc(Cl)c1Cl (configuration not stated) as the molecule, how does the CD read?
A: Its CD is 12.3 µM.

Q: How did the CD turn out when CC(C)CC(O)C#CC#CC(O)c1ccc(F)cc1 (configuration not stated) was run?
A: The CD was 5.1 µM.

Q: How did the CD turn out when CCCCCC(O)C#CC#CC(O)c1ccc(C(C)(C)C)cc1 (configuration not stated) was run?
A: The CD was 8.8 µM.
